Source: PubChem BioAssay (ICCB-Longwood Screening Facility, Harvard Medical School)
This is one part of a sample in which hits are shown more often than they occur.
GIV Gai3 FP = inhibitors of GIV GBA-motif binding to rat Galpha-i3; P08753; Galpha-i3/FITC-GIV peptide fluorescence polarization, 90 min; stronger effect = lower value; scaled: aluminum fluoride 0%, vehicle 100%; percent of control (FP), % (no concentration beside the values); actives 0.42% (n = 210,000); AID 1224905;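 active means replicate mean at 85% of control or lower, very high polarization wells dropped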;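 further: wells of about 15 µL received 100 nL stock; the first replicate is given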
Large screens that a line does not name were inactive.

CCN1CCc2c(sc(NC(=O)CSc3ccccc3)c2-c2nc3ccccc3s2)C1	none
CC(=O)Nc1sc2c(c1-c1nc3ccccc3s1)CCCC2	none
CCN1CCc2c(sc(NC(=O)c3ccc(Cl)cc3)c2-c2nc3ccccc3s2)C1	GIV Gai3 FP -3.2
CN1CCc2c(sc(NC(=O)CSc3ccc(F)cc3)c2-c2nc3ccccc3s2)C1	none
CCn1c(SCc2ccccc2C)nc2c(cnn2CCO)c1=O	none
Cc1ccc(NC(=O)c2ccccc2NC(=O)c2cccc(S(=O)(=O)N3CCCCCC3)c2)c(C)c1	none
COc1ccc(C(Nc2ccccn2)c2cc(C)sc2NC(=O)c2ccccc2)cc1 (stereo unspecified)	none
CCOc1ccc(NC(=O)Cn2nc3c4sccc4ncn3c2=O)cc1	none
Cn1c(Cc2nc(-c3cnccn3)no2)nnc1SCc1ccccc1	none
CCN1CCCC1CNC(=O)CCCOc1cc(=O)n(C)c2ccccc12 (stereo unspecified)	none
CCN(CC)c1ccc(NC(=O)Cn2c(C)cc(C)c(S(=O)(=O)c3ccc(Cl)cc3)c2=O)c(C)c1	none
Cc1cccn2c(=O)c(/C=C(\C#N)C(=O)N3CCCCC3)c(N3CCOCC3)nc12	none
Cc1cccn2c(=O)c(/C=C3\SC(=S)N(CCCC(=O)O)C3=O)c(NCCc3ccccc3)nc12	none
COCCCN1C(=O)/C(=C\c2c(N3CC(C)OC(C)C3)nc3c(C)cccn3c2=O)SC1=S (stereo unspecified)	none
Cc1cccn2c(=O)c(/C=C3\SC(=S)N(CC(C)C)C3=O)c(N3CC(C)OC(C)C3)nc12 (stereo unspecified)	none
Cc1cccn2c(=O)c(/C=C3\SC(=S)N(C)C3=O)c(N3CCCC3)nc12	GIV Gai3 FP -36
Cc1cccn2c(=O)c(/C=C3\SC(=S)N(CCCC(=O)O)C3=O)c(N3CCCCC3)nc12	GIV Gai3 FP 40
CCOC(=O)C1CCCN(C(=O)c2ccc3c(c2)N(CC)CCS3)C1 (stereo unspecified)	none
O=C(Cn1cnc2c(nc3n2CCCCC3)c1=O)NC1CCCCCC1	none
O=C(c1ccccc1)c1cc(Cl)cc2c1NC(C1CC=CCC1)C1CC=CC21 (stereo unspecified)	none
CCC1(C)CC(=O)c2c(ccc3oc(C(=O)NCc4ccc(C)cc4)c(C)c23)O1 (stereo unspecified)	none
NC(=S)c1cc2ccccc2oc1=O	GIV Gai3 FP 6.0
O=C(NCCO)c1cc2ccccc2oc1=O	none
NC(=S)c1cc2ccc(O)cc2oc1=O	none
Cc1cc(C2CCCN2C(=O)NCCC(C)C)no1 (stereo unspecified)	none
O=c1oc2c3c4c(cc2cc1-c1nnc(Nc2ccccc2)s1)CCCN4CCC3	none
CCN(CC)c1ccc2cc(C(=O)Nc3cccc(OC)c3)c(=O)oc2c1	none
COc1cccc(NC(=O)c2csc3c2CCCCC3)c1	none
Cc1ccc(NC(=O)c2cc3cc4c5c(c3oc2=N)CCCN5CCC4)cc1	GIV Gai3 FP -14
N=c1oc2c(Cl)cc(Cl)cc2cc1C(=O)Nc1ccc(F)cc1	none
COc1cccc(NC(=O)c2cc3cc4c5c(c3oc2=N)CCCN5CCC4)c1	GIV Gai3 FP -14
COc1ccc(Nc2ncc(C#N)c(Nc3ccccc3)c2C#N)cc1	none
CC(C)N1C(=O)CSc2cnn(CC(=O)NC3CCCC3)c(=O)c21	none
CN(C(=O)c1cc2c(s1)-c1ccccc1S(=O)(=O)C2)c1ccc(F)cc1	none
O=Cc1ccc(/C=C2\SC(=S)N(CC(=O)O)C2=O)cc1	none
CN(C)c1ccc(/C=C2/SC(=S)N(CCCCC(C(=O)O)N3C(=O)/C(=C\c4ccc(N(C)C)cc4)SC3=S)C2=O)cc1 (stereo unspecified)	none
COC(=O)CN1C(=O)C(=Cc2ccc(N(C)C)cc2)SC1=S	GIV Gai3 FP -42
O=C(O)CN1C(=O)/C(=C\c2ccccc2)SC1=S	none
COC(=O)CN1C(=O)/C(=C\c2ccc(O)cc2)SC1=S	GIV Gai3 FP -42
CCCN1C(=O)/C(=C/c2ccc(O)c(OC)c2)SC1=S	GIV Gai3 FP -34
CCOC(=O)N1CCN(C(=O)CCN2C(=O)/C(=C/c3ccc(OC)c(OC)c3)SC2=S)CC1	none
CCN(CCO)C(=O)CCN1C(=O)/C(=C/c2ccc(OC)c(OC)c2)SC1=S	none
COC(=O)CN1C(=O)S/C(=C\c2ccccc2)C1=O	none
Cc1ccc(NC(=O)C2CCN(S(=O)(=O)c3cc(-c4noc(C5CC5)n4)ccc3C)CC2)nc1	none
Cn1c(=O)c2nc(SCCC(=O)Nc3ccc(F)cc3F)n(C)c2n(C)c1=O	none
CCCCn1c(=O)c2sccc2n2c(=O)[nH]nc12	none
O=S(=O)(c1ccc(Cl)cc1)N1CCN(c2ccc(N3CCCC3)nn2)CC1	none
CCOC(=O)c1ccc(N2C(=O)C(=O)/C(=C(\O)c3ccc(OC)cc3)C2c2ccc(Br)cc2)cc1 (stereo unspecified)	none
COc1ccc(CC(=O)Nc2ccc(-c3cnco3)cc2)cc1OC	none
O=C(O)c1cccc(S(=O)(=O)Nc2ccccn2)c1	none
COc1ccc(-c2nn(CN3CCC(C(N)=O)CC3)c(=S)n2-c2ccccc2)cc1OC	none
CC(C)N1CCc2c(sc(NC(=O)C3=COCCO3)c2C(N)=O)C1	none
CC(C)N1CCc2c(sc(N)c2C(N)=O)C1	GIV Gai3 FP -67
CCOC(=O)c1c(N)sc2c1CCN(C(=O)OCC)C2	none
Cc1cccc(-c2noc(-c3nnn(Cc4nc(-c5cccc(Cl)c5)oc4C)c3C)n2)c1	none
CN(CCNc1nc(-c2ccccc2)no1)C1CCCCC1	none
Cc1cccc(C)c1Nc1c(-c2ccc(Cl)cc2)nc2sccn12	none
CCCN1C(=O)/C(=C/c2ccc(CC)cc2)NC1=S	none
CCOc1cc(/C=C2\NC(=S)N(C3CCCCC3)C2=O)ccc1O	none
CCCN1C(=O)/C(=C/c2cc(Br)c(O)c(OCC)c2)NC1=S	GIV Gai3 FP -83
CN1C(=O)/C(=C/c2ccc(-c3ccc(C(=O)O)cc3)o2)c2ccccc21	none
O=C(O)c1cccc(-c2ccc(/C=C3\Sc4ccccc4C3=O)o2)c1	GIV Gai3 FP -73
O=C(O)c1ccc(-c2ccc(/C=C3\Sc4ccccc4C3=O)o2)cc1	GIV Gai3 FP -10
COC(=O)c1cccc(-c2ccc(/C=C3\Sc4ccccc4C3=O)o2)c1	none
CCOC(=O)c1ccc(-c2ccc(/C=C3\Sc4ccccc4C3=O)o2)cc1	none
N=C1S/C(=C\c2ccc(-c3cccc(C(=O)O)c3)o2)C(=O)N1c1ccc2c(c1)OCO2	none
Cc1cccn2c(=O)c(C(=O)NCCN(C)C)cnc12	none
O=C(NC1CC1)C(F)(F)C1(F)OC(F)(F)C(F)(F)C1(F)F (stereo unspecified)	none
CC(C)C(=O)c1sc(Nc2ccc(Br)cc2)nc1N	none
CCCOc1ccc(C2c3c(oc4ccc(Cl)cc4c3=O)C(=O)N2CCN(CC)CC)cc1OC (stereo unspecified)	none
CC1CCC(NS(=O)(=O)c2ccc(-c3ccno3)s2)CC1 (stereo unspecified)	none
O=S(=O)(NCc1cccs1)c1ccc(-c2ccno2)s1	none
CC(C)NS(=O)(=O)c1ccc(-c2ccno2)s1	GIV Gai3 FP 31
Clc1cccc(-c2ccc(CNCCCn3ccnc3)o2)c1	none
OCC1CCCN(Cc2ccc(Br)o2)C1 (stereo unspecified)	none
CC1=NN(c2cc(Cl)cc(Cl)c2)C(=O)/C1=C/c1ccc(-c2ccc3c(c2)C(=O)OC3)o1	none
NC(=O)C1CCN(C(=O)C2=Cc3ccccc3OC2)CC1	none
N#CC(C#N)=C(N)/C(C#N)=C/c1ccc(O)cc1	none
N#C/C(=C\c1ccc(Cl)cc1)c1ccccc1	none
CN(C)c1ccc(/C=C(\C#N)c2nc3ccccc3c(=O)[nH]2)cc1	none
CN(C)c1ccc(/C=C(\C#N)C(N)=C(C#N)C#N)cc1	GIV Gai3 FP -24
